Experimental data published in ChEMBL document CHEMBL4725319, “Discovery of attenuation effect of orexin 1 receptor to aversion of nalfurafine: Synthesis and evaluation of D-nor-nalfurafine derivatives and analyses of the three active conformations of nalfurafine” (Bioorg Med Chem Lett, 2020).
The source made the active and inactive calls. The rule behind the calls is not given here.

Columns and labels:
Mus musculus [1] = organism: Mus musculus; experiment: Analgesic activity in mouse assessed as increase in wheel running activity
Mus musculus [2] = organism: Mus musculus; experiment: Analgesic activity in OX1R knock out mouse assessed as increase in wheel running activity

CN(C(=O)Cc1ccc(Cl)c(Cl)c1)C1CCCCC1N1CCCC1 (configuration not stated)
Activity (Mus musculus [1]): Active
Activity (Mus musculus [2]): Active
